{"sequences": {"note": "By UniProt entry, the sequences of proteins in these tests, tags left out. Residues count along the entry.", "UniProt P27986, 624-718 limits assumed": "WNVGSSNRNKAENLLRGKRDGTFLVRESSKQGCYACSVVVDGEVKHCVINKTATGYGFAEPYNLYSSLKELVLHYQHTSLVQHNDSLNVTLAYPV"}, "source": "patent US5688992A", "about": "“O-malonyltryrosyl compounds, O-malonyltryrosyl compound-containing peptides, and use thereof” (The United States of America as represented by the …, priority 1995, dated 1997)", "origin": "cited, not measured here", "target": "C-terminal SH2 domain of PI 3-kinase p85 (Homo sapiens, UniProt P27986)", "settings": "read-out: IC50 ± S.E., p85 (C-terminal) SH2 domain; X = pTyr or L-F2Pmp; previously reported (Burke 1994); cited from earlier work", "data": [{"smiles": "CSCC[C@H](NC(=O)[C@@H]1CCCN1C(=O)[C@@H](NC(=O)[C@H](Cc1ccc(OP(=O)(O)O)cc1)NC(=O)[C@H](CC(=O)O)NC(C)=O)C(C)C)C(=O)N[C@@H](CC(C)C)C(N)=O", "values": [{"measurement": "IC50", "result": 150, "unit": "nM"}]}]}
